Drawing on PubChem BioAssay AID1832 (Broad Institute, 2009), this text covers activity score (negative = inhibition of binding) for 24 compounds.

Amino acid sequences for entries named in this document (tags omitted).
UniProt Q9XUB2, whole entry: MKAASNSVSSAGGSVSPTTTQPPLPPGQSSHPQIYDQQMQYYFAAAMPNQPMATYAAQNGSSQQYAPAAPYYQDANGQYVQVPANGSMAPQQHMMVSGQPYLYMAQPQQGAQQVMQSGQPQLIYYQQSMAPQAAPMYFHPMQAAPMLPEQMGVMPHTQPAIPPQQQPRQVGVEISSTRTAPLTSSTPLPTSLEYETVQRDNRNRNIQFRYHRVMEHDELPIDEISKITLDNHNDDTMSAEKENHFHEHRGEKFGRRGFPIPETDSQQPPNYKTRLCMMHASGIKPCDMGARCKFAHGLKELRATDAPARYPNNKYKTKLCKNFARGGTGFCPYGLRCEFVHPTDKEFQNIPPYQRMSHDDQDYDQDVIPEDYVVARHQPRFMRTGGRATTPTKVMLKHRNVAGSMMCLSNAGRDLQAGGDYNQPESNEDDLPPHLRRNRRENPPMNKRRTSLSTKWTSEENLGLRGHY

Only a part is listed here, and it is no random draw. Some tests of the compounds listed are not included; inactive here does not mean inactive elsewhere. Activity calls are given as the source filed them.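 The calls were made as follows: active = inhibition past about -25% in most replicates, and total fluorescence under double the plate's negative control median (limit read from the data); inconclusive = replicates evenly split on the limit, or fluorescence at least double controls; inactive = too little inhibition in most replicates.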

The target of the assay is Zinc finger protein mex-5 (Caenorhabditis elegans) (UniProt Q9XUB2). In words: MEX-5 zinc finger RNA-binding disruptors – biochemical, C. elegans, fluorescence polarization, MLPCN library, primary screen (AID 1832).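 Also: 0% = DMSO and -100% = 5 µM competing unlabeled TCR2 RNA.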 The conditions noted are these: MEX-5/FITC-TCR2 RNA binding, at 10 µM, hits give low values. (In general: In fluorescence polarisation assays a small probe gives low polarisation when free and higher when bound to something large.)
In the case of `Cc1ccccc1C(=O)NCC1(N2CCCCC2)CCCCC1`, the activity score (negative = inhibition of binding) was inactive: 1.02%.

Turning to `CN(C)c1ccc(C(=O)NCC2(N(C)C)CCCCC2)cc1`, the activity score (negative = inhibition of binding) was inactive: 3.48%.

Turning to `CN(C)C1CCCC1OC(=O)C(O)(c1ccccc1)c1ccccc1` (centres undefined), the activity score (negative = inhibition of binding) was inactive: -3.13%.

Turning to `C=CCN1CCN(CCOC(=O)C(O)(c2ccccc2)c2ccccc2)CC1`, the activity score (negative = inhibition of binding) is inactive: 0.868%.

As to `O=C(NCC1(N2CCCCC2)CCCCC1)c1cc(F)c(F)cc1Cl`, the activity score (negative = inhibition of binding) was inactive: -0.297%.

For the compound `COc1ccc(C(=O)NCC2(N(C)C)CCCCC2)cc1`, the activity score (negative = inhibition of binding) was inactive: -1.29%.

For the compound `CCN1CCCC(OC(=O)C2(O)c3ccccc3C=Cc3ccccc32)C1` (centres undefined), the activity score (negative = inhibition of binding) was inactive: 1.06%.

Consider `Cc1cc(C(=O)NCC2(N3CCCCC3)CCCCC2)ccc1[N+](=O)[O-]`, for which the activity score (negative = inhibition of binding) is inactive: 0.755%.

As for `O=C(NCC1(N2CCCCC2)CCCCC1)c1cccc(Br)c1`, the activity score (negative = inhibition of binding) was inactive: -1.92%.

Take `O=C(NCC1(N2CCCCC2)CCCCC1)c1cc([N+](=O)[O-])ccc1Cl`: the activity score (negative = inhibition of binding) was inactive: -8.94%.

On to `CN1[C@@H]2CC[C@H]1CC(OC(=O)C(O)(c1ccccc1)c1ccccc1)C2` (some centres undefined), for which the activity score (negative = inhibition of binding) was inactive: 0.849%.

As for `CCN(CC)CC(C)C(C)OC(=O)C(O)(c1ccccc1)c1ccccc1` (centres undefined), the activity score (negative = inhibition of binding) was inactive: 0.233%.

For the compound `COc1cc(SC)ccc1C(=O)NCC1(N(C)C)CCCCC1`, the activity score (negative = inhibition of binding) was inactive: -2.27%.

Consider `CC(C)N1C(=O)CC2(CCN(CCOC(=O)C(O)(c3ccccc3)c3ccccc3)CC2)C1=O`, for which the activity score (negative = inhibition of binding) is inactive: 3.34%.

In the case of `Cc1ccc(C(=O)NCC2(N3CCCCC3)CCCCC2)cc1`, the activity score (negative = inhibition of binding) was inactive: 0.756%.

As to `O=C(OC1CN2CCC1CC2)C(CO)(c1ccccc1)c1ccccc1` (centres undefined), the activity score (negative = inhibition of binding) was inactive: 2.8%.

`COc1ccc(Br)c(C(=O)NCC2(N3CCCCC3)CCCCC2)c1`: the activity score (negative = inhibition of binding) was inactive: 3.46%.

For `CC(C)Oc1ccc(C(=O)NCC2(N(C)C)CCCCC2)cc1`, the activity score (negative = inhibition of binding) is inactive: -0.454%.

`CN(C)c1cccc(C(=O)NCC2(N(C)C)CCCCC2)c1`: the activity score (negative = inhibition of binding) was inactive: -1.32%.

With `CN(C)C1(CNC(=O)c2ccc(Br)cc2)CCCCC1`, the activity score (negative = inhibition of binding) is inactive: 2.04%.

For `COc1cc(C(=O)NCC2(N(C)C)CCCCC2)c([N+](=O)[O-])cc1OC`, the activity score (negative = inhibition of binding) is inactive: -1.16%.

Take `COc1cccc(C(=O)NCC2(N3CCCCC3)CCCCC2)c1`: the activity score (negative = inhibition of binding) is inactive: 2.69%.

Regarding `COc1ccc(Cl)cc1C(=O)NCC1(N(C)C)CCCCC1`, the activity score (negative = inhibition of binding) was inactive: 2.04%.

In the case of `O=C(NCC1(N2CCCCC2)CCCCC1)c1cccc(Cl)c1`, the activity score (negative = inhibition of binding) was inactive: -0.533%.
